From EP4744648A1, “LIPOPEPTIDE-CONTAINING FAT-DISSOLVING PRODUCT, AND PREPARATION METHOD THEREFOR AND USE THEREOF” (Bloomage Biotechnology Corporation Limited, priority 2023, dated 2024)
Read-outs that look alike come from different tables or passages of the source.

System: Mouse adipocyte cell line 3T3-F442A
Conditions: 24 h; for Relative growth rate (%): Example 2, 3T3-F442A

CCCCCCCCCC(=O)N[C@@H](Cc1c[nH]c2ccccc12)C(=O)N[C@H](CC(N)=O)C(=O)N[C@@H](CC(=O)O)C(=O)N[C@@H]1C(=O)NCC(=O)N[C@@H](CCCN)C(=O)N[C@@H](CC(=O)O)C(=O)N[C@H](C)C(=O)N[C@@H](CC(=O)O)C(=O)NCC(=O)N[C@H](CO)C(=O)N[C@@H]([C@H](C)CC(=O)O)C(=O)N[C@@H](CC(=O)c2ccccc2N)C(=O)O[C@@H]1C [Daptomycin, reference compound]
half maximal inhibitory concentrations IC50 (3T3-F442A adipocytes, calculated from Table 2 curves): 144.4 µg/mL | Relative growth rate (%) (0.01 mg/mL): 86.04±3.93% | Relative growth rate (%) (0.04 mg/mL): 77.87±3.87% | Relative growth rate (%) (0.08 mg/mL): 74.12±1.16% | Relative growth rate (%) (0.16 mg/mL): 43.11± 1.96%
